Results from patent publication US20220218832A1, “POLYMER DRUG” (BIODYNAMIC RESEARCH FOUNDATION, priority 2019, published 2022).
Like-named read-outs stand apart in the source and are kept apart here.

How the values were obtained:
[1] = buffers pH 5.0, 6.0, 7.4; 37° C.
[2] = 30 mg/kg (boric acid equivalent) i.v., monitored 30 days
[3] = Particle size by dynamic light scattering; format: physicochemical; details: 0.1 M tris-HCl buffer (pH 8.2), 15 mg/ml, 25° C.
Method: Then, each solution was measured at 25° C. by a light scattering apparatus, Model ELSZ⋅2000ZS manufactured by Otsuka Electronics (Photal Inc., Osaka).

[4] = Surface charge (Zeta potential); format: physicochemical; details: deionized water, 20 mg/ml
[5] = average of 30 particles
[6] = test system: Colon cancer C26 cells
[7] = test system: HeLa cells
[8] = pH of lyophilized product dissolved in distilled water; format: physicochemical
[9] = S180 tumor, ddY mice, 15 mg/kg i.v., 24 hours, 10B by ICP MS
[10] = 15 mg/kg boric acid equivalent i.v., 24 hours

## SMA-glucosamine-boric acid complex [SGB]
[1]
  Release of boric acid: most quickly released at acidic pH 5.0
[2]
  Body weight: a little weight loss on 2 to 4 days, but it was recovered on 5 to 6 days
  Toxicity: No serious toxicity
[3]
  Average particle size (dynamic light scattering method) in diameter: 95 ± 5 nm
[4]
  Surface charge (Zeta potential): −37 mV
[5]
  Average particle size by transmission electron microscope (dried state): 85±5.5 nm
[5]; listed as SMA-glucosamine-boric acid complex(SGB)
  Average particle size by transmission electron microscope (dried state): About 85 nm
[6]
  Cytotoxicity (cell viability, MTT): very potent cytotoxicity
[7]
  Cytotoxicity (cell viability, MTT): very potent cytotoxicity
[8]
  Intrinsic pH in solution of lyophilized product in distilled water: 7.2
[9]
  Accumulation in tumor sites compared with free boric acid: significantly more accumulated in the tumor sites than free boric acid
[10]
  Urinary excretion compared with free boric acid: excreted much less in urine than free boric acid
